How the values were obtained:
URAT1 K393D mutant = URAT1 K393D mutant (Homo sapiens, UniProt Q96S37, K393D); experiment: 14C-uric acid uptake assay in transfected HEK293 cells; assay type: cell-based
wild-type hURAT1 = wild-type hURAT1 (Homo sapiens, UniProt Q96S37); experiment: cell-based
URAT1 K393H mutant = URAT1 K393H mutant (Homo sapiens, UniProt Q96S37, K393H); experiment: 14C-uric acid uptake assay in transfected HEK293 cells; assay type: cell-based
URAT1 K393E mutant = URAT1 K393E mutant (Homo sapiens, UniProt Q96S37, K393E); experiment: as above; assay type: cell-based
URAT1 K393R mutant = URAT1 K393R mutant (Homo sapiens, UniProt Q96S37, K393R); experiment: as above; assay type: cell-based
URAT1 K393A mutant = URAT1 K393A mutant (Homo sapiens, UniProt Q96S37, K393A); experiment: as above; assay type: cell-based

Amino acid sequences for entries named in this document (tags omitted).
UniProt Q96S37, whole entry K393D: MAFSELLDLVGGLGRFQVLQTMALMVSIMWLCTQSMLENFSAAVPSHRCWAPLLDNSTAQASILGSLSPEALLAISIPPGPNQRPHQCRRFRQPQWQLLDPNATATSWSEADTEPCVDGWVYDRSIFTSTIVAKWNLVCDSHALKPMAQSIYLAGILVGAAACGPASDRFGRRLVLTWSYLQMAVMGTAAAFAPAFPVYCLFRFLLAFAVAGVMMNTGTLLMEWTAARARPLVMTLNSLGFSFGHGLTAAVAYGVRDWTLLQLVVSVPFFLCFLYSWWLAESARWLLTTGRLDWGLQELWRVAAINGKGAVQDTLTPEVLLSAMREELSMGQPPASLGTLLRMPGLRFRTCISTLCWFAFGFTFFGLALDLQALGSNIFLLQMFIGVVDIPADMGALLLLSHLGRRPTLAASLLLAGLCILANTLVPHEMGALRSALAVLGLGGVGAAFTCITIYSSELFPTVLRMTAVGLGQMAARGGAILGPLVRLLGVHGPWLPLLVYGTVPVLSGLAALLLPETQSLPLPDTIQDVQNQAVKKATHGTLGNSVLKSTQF
UniProt Q96S37, whole entry K393H: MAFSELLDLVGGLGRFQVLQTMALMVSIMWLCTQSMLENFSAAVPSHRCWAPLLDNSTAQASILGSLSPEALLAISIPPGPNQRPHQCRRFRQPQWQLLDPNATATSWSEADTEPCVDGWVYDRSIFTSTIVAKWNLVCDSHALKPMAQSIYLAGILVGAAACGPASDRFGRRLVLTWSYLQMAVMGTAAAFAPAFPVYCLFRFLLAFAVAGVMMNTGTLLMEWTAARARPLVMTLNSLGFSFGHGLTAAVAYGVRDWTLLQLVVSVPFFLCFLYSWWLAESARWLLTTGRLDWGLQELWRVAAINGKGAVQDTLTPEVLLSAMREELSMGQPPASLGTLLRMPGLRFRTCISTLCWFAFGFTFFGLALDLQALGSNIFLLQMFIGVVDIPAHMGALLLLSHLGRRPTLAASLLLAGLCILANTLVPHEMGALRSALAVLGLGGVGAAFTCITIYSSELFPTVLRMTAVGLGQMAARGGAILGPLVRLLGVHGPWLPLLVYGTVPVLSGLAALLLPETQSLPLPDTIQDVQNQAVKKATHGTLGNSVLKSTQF
UniProt Q96S37, whole entry K393E: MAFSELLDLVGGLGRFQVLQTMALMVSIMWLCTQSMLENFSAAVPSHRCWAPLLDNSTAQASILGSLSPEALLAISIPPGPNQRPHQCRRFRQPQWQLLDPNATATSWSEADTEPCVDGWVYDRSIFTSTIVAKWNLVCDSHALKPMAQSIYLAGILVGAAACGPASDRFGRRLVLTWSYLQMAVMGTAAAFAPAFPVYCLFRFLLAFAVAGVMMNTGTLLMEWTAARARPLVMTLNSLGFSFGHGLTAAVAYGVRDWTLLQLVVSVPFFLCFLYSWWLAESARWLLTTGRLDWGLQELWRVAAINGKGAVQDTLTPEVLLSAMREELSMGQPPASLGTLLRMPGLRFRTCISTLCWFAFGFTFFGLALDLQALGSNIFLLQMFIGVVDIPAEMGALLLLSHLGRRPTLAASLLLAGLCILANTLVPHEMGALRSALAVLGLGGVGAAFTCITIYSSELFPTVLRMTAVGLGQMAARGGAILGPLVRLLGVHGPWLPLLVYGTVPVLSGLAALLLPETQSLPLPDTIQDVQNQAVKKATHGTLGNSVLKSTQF
UniProt Q96S37, whole entry K393R: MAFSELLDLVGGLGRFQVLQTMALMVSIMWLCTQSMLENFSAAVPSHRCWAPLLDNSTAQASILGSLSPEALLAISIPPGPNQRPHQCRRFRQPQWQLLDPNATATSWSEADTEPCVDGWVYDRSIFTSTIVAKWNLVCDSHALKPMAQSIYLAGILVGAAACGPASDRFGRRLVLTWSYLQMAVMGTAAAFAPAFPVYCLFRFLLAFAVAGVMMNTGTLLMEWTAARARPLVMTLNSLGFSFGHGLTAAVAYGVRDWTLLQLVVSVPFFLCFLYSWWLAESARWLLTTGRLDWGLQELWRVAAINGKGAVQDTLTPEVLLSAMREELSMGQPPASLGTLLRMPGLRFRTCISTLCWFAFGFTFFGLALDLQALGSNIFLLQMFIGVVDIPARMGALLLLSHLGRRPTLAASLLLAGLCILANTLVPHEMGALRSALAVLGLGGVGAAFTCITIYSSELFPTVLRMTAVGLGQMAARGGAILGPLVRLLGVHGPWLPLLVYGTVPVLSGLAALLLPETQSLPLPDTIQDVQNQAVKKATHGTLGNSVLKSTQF
UniProt Q96S37, whole entry K393A: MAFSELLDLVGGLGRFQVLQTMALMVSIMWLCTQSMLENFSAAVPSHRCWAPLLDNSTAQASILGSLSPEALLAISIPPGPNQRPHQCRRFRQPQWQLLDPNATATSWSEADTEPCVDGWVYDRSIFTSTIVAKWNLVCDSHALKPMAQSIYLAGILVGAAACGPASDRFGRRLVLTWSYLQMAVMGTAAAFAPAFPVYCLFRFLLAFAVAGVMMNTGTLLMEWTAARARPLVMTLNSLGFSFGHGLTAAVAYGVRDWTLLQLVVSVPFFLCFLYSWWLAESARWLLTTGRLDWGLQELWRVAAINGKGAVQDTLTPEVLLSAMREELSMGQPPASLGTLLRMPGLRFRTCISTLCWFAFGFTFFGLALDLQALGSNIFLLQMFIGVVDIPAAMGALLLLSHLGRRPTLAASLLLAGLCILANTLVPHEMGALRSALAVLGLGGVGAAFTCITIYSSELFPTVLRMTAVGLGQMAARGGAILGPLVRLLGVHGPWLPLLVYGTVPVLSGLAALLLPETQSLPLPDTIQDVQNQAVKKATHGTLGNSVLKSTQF

IC50 (URAT1 K393D mutant): 8.57 ± 2.65 µM
IC50 (wild-type hURAT1): 6.94 ± 2.41 µM
IC50 (URAT1 K393H mutant): 8.79 ± 1.26 µM
IC50 (URAT1 K393E mutant): 7.89 ± 3.66 µM
IC50 (URAT1 K393R mutant): 6.04 ± 1.62 µM
IC50 (URAT1 K393A mutant): 9.45 ± 4.51 µM
Compound: O=C(O)CSc1nnc(Br)n1-c1ccc(C2CC2)c2ccccc12 [lesinurad]

Reference: publication PMC9521027 (ACS Omega, 2022)
